In patent publication US10682316B2, “Methods for fabrication of epinephrine bitartrate nanoparticles and epinephrine bitartrate nanoparticles fabricated thereby” (NOVA SOUTHEASTERN UNIVERSITY, priority 2010, dated 2020):

Assay: Particle size measurement before and after size reduction (Mastersizer, NiComp 370, Zetasizer)
Assay type: physicochemical
Settings: epinephrine base first sample in water, listed as epinephrine
Protocol: Nanoparticles were fabricated from epinephrine base and epinephrine bitartrate (Bit) using high energy fluidization (microfluidization) techniques. These techniques involve the use of oversaturated solutions of various solvents, particularly water and isopropanol, at various temperatures and pressures ranging from about 8,000 psi to 30,000 psi and to about 8.3° to 43.3° C. under various passes. Particle size was measured before and after size reduction using a Mastersizer (Malvern) and/or a NiComp 370 Submicron Particle Sizer (NiComp) and nano-sized particles were confirmed using laser diffraction techniques. The particles were lyophilized (freeze-dried) using a bench top lyophilizer (ART Inc.).

## CNC[C@H](O)c1ccc(O)c(O)c1 [Epinephrine Base, epinephrine]
  Size After Fabrication (110 F., 30 Kpsi) (nm): 273.9±179.0 nm
